Results: patent publication US8455552B2, “Composition comprising S-allylmercapto-N-acetylcysteine (ASSNAC) for up-regulation of cellular glutathione level” (RAMOT et Tel Aviv University Ltd., priority 2007, dated 2013)

System: human neuroblastomas SH-SY5Y cell line
Test: Protection of SH-SY5Y cultures against tBuOOH cytotoxicity (neutral red)
Conditions: tBuOOH 1 mM 3 hours, no pretreatment

Q: `CC(C)(C)OO` was tested. Which “cytotoxicity of tBuOOH alone” value did it give?
A: 85%
